Reference: article PMC13035853, “Mechanism of beta-arrestin 1 mediated Src activation via Src SH3 domain revealed by cryo-electron microscopy” (Nature Communications, 2026)

Biological target: three-domain Src (SH3-SH2-SH1, residues 83-533), C-tail unphosphorylated (chicken, UniProt P00523, in part)
Assay: cell-based or functional assay

B1: β-arrestin 1, wild type (residues 2-418) (natural protein, rat, UniProt P29066 2-418, looked up)
chain: GDKGTRVFKKASPNGKLTVYLGKRDFVDHIDLVDPVDGVVLVDPEYLKERRVYVTLTCAFRYGREDLDVLGLTFRKDLFVANVQSFPPAPEDKKPLTRLQERLIKKLGEHAYPFTFEIPPNLPCSVTLQPGPEDTGKACGVDYEVKAFCAENLEEKIHKRNSVRLVIRKVQYAPERPGPQPTAETTRQFLMSDKPLHLEASLDKEIYYHGEPISVNVHVTNNTNKTVKKIKISVRQYADICLFNTAQYKCPVAMEEADDTVAPSSTFCKVYTLTPFLANNREKRGLALDGKLKHEDTNLASSTLLREGANREILGIIVSYKVKVKLVVSRGGLLGDLASSDVAVELPFTLMHPKPKEEPPHREVPESETPVDTNLIELDTNDDDIVFEDFARQRLKGMKDDKDEEDDGTGSPHLNNR
- initial velocity (V0) of optimal Src peptide phosphorylation by Src (20 nM) with βarr1 (100 nM) activated by V2Rpp and Fab30, against Src alone: ~2 fold
